IC50 data for one molecule are collected here from ChEMBL document CHEMBL3425494, “Design, synthesis, and antitumor evaluation of novel histone deacetylase inhibitors equipped with a phenylsulfonylfuroxan module as a nitric oxide donor” (J Med Chem, 2015).

Sequences of proteins named here, by UniProt entry; tags and fusion partners are left off. A change or cut given only in a name is not applied to a line headed by its entry.
UniProt Q13547: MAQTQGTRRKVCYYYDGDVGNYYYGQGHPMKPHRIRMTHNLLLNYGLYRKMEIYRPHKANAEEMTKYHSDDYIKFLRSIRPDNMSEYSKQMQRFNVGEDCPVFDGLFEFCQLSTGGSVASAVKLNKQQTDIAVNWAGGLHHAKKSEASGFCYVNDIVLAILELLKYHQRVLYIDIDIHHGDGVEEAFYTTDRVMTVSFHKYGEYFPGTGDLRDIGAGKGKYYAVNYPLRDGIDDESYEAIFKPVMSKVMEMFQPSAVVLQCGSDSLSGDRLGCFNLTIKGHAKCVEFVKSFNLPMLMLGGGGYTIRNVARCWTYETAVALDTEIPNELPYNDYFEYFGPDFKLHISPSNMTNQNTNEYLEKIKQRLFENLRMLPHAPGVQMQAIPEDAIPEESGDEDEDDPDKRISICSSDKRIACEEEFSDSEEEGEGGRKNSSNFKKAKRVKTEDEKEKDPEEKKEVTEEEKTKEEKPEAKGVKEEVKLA
UniProt Q92769: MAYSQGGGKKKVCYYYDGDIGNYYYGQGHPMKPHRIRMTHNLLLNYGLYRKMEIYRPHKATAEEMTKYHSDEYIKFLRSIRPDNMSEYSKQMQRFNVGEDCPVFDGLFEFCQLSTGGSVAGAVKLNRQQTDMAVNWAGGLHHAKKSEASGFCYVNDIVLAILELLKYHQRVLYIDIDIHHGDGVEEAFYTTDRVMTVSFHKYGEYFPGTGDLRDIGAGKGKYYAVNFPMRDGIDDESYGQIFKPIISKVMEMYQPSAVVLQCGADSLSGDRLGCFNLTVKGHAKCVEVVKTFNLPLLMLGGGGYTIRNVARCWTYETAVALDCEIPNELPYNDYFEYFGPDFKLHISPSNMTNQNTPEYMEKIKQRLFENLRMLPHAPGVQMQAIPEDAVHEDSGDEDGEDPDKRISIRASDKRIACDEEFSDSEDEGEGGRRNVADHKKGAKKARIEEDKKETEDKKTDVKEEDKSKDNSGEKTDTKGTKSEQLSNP

The target of the assay is Histone deacetylase (HDAC1 and HDAC2) (Homo sapiens, UniProt Q13547+Q92769). The assay is classed as cell-based. The conditions noted are these: hela.

With `O=C(CCCCCOc1no[n+]([O-])c1S(=O)(=O)c1ccccc1)NO`, the concentration for half-maximal inhibition (IC50) worked out at 38 nM.
